Measured values reported in patent EP0900207B1, “PYRAZINONE THROMBIN INHIBITORS” (MERCK & CO., INC., priority 1996, dated 1997).

What follows are molecules tested against human α-thrombin (Homo sapiens, UniProt P00734) (assay: In vitro proteinase inhibition assay, human α-thrombin (p-nitroanilide or fluorogenic substrate hydrolysis)). Conditions: inhibitory activity against human thrombin; 25°C, TRIS buffer pH 7.4.
Protocol: Assays of human α-thrombin and human trypsin were performed by the methods substantially as described in Thrombosis Research, Issue No. 70, page 173 (1993) by S.D. Lewis et al.
The assays were carried out at 25°C in 0.05 M TRIS buffer pH 7.4, 0.15 M NaCl, 0.1% PEG. Trypsin assays also contained 1 mM CaCl2. In assays wherein rates of hydrolysis of a p-nitroanilide (pna) substrate were determined, a Thermomax 96-well plate reader was used was used to measure (at 405 nm) the time dependent appearance of p-nitroaniline. sar-PR-pna was used to assay human α-thrombin (Km=125 µM) and bovine trypsin (Km=125 µM). p-Nitroanilide substrate concentration was determined from measurements of absorbance at 342 nm using an extinction coefficient of 8270 cm^-1M^-1.
In certain studies with potent inhibitors (Ki < 10 nM) where the degree of inhibition of thrombin was high, a more sensitive activity assay was employed. In this assay the rate of thrombin catalyzed hydrolysis of the fluorogenic substrate Z-GPR-afc (Km=27 µM) was determined from the increase in fluorescence at 500 nm (excitation at 400 nm) associated with production of 7-amino-4-trifluoromethyl coumarin. Concentrations of stock solutions of Z-GPR-afc were determined from measurements of absorbance at 380 nm of the 7-amino-4-trifluoromethyl coumarin produced upon complete hydrolysis of an aliquot of the stock solution by thrombin.
Activity assays were performed by diluting a stock solution of substrate at least tenfold to a final concentration < 0.1 Km into a solution containing enzyme or enzyme equilibrated with inhibitor. Times required to achieve equilibration between enzyme and inhibitor were determined in control experiments. Initial velocities of product formation in the absence (Vo) or presence of inhibitor (Vi) were measured. […]
For `Cc1nc(N)ccc1CNC(=O)Cn1c(C)cnc(NC(C)(C)Cc2ccccc2)c1=O`, the Ki was greater than 1 nM. `CCNC(=O)COc1ccc(Cl)cc1CNC(=O)Cn1c(C)cnc(NC(C)(C)C)c1=O` showed a Ki greater than 1 nM. `CCNC(=O)COc1ccccc1CNC(=O)Cn1c(C)cnc(NCCc2ccccc2)c1=O` showed a Ki of less than 1 nM.
